{
  "source": "patent US9737532B2",
  "about": "“Method of treating ischemia/reperfusion injury” (TOKYO UNIVERSITY OF SCIENCE FOUNDATION, priority 2011, dated 2017)",
  "tested_on": "p53",
  "experiment": "p53 protein stabilization by Western blotting in mouse fibroblast cells",
  "assay_type": "cell-based",
  "conditions": "3T3-F442A cells, 8 hours, FIG. 4A",
  "data": [
    {"substance": "Nutlin3a", "values": [
      {"measurement": "p53 protein stabilization", "result": "induced p53 protein stabilization"}
    ]}
  ]
}
